According to patent publication US20200297862A1, “METHODS OF USING BISPECIFIC ANTIGEN-BINDING CONSTRUCTS TARGETING HER2” (Zymeworks Inc., priority 2016, published 2020):
Like-named read-outs stand apart in the source and are kept apart here.

Columns and labels:
SKOV3 cells [1] = experiment: Cytotoxicity of anti-HER2 ADCs in HER2+ cells; format: cell-based, human; settings: continuous incubation 5 days, Celltiter-Glo; Table 16
SKOV3 xenograft = experiment: Human ovarian cancer cell xenograft model, ADC (Example 17); format: in vivo, athymic nude mice
T226 xenograft = experiment: Trastuzumab resistant breast cancer PDX, ADC (Example 19); format: in vivo, athymic nude mice; settings: Day 31
Description: (§1) Dosing for each group was as follows:
(§2) A) IgG control was dosed intravenously with a loading dose of 15 mg/kg on study day 1 and maintenance doses of 10 mg/kg administered on study days 4, 8, 11, 15, 18, 22, and 25

NCI-N87 cells = experiment: Cytotoxicity of anti-HER2 ADCs in HER2+ cells; format: cell-based, human; settings: continuous incubation 5 days, Celltiter-Glo; Table 16
Description: Test antibodies were diluted in media and added to the cells at 10 μl/well in triplicate. The plates were incubated for 3 days 37° C. Cell viability was measured using either AlamarBlue™ (Biosource # dal1100), or Celltiter-Glo® and absorance read as per the manufacturer's instructions. Data was normalized to untreated control and analysis was performed in GraphPad prism.
Human IgG conjugated to DM1 (v6249) was used as a control in some cases. […] The method was conducted as described in Example 7 with the following modifications. The anti-HER2 ADCs were incubated with the target SKOV3 and JIMT-1 (FIGS. 17A and B) cells for 24 h, cells washed, media replaced and cell survival was evaluated after 5 day incubation at 37° C. […] In FIG. 17E-G, anti-HER2 ADCs were incubated continuously with target SKOV3, JIMT-1, NCI-N87 cells for 5 days. Cell viability was measured as described in Example 7 using either AlamarBlue™ (FIGS. 17A-D) or Celltiter-Glo® (FIGS. 17E-G).

JIMT-1 cells [2] = experiment: Cytotoxicity of anti-HER2 ADCs in HER2+ cells; format: cell-based, human; settings: continuous incubation 5 days, Celltiter-Glo; Table 16
GXA3054 xenograft = experiment: PDX model of HER2 3+ gastric cancer (Example 49); format: in vivo, athymic nude mice
ZR-75-1 cells = experiment: ADCC, PBMC effector cells E:T 5:1; format: cell-based, human
FaDu xenograft = settings: mouse, in vivo
Description: FaDu cells are derived from squamous cell cancer of the head and neck that is HER2 low, non-HER2 gene amplified, HER3+, EGFR+ and highly sensitive to Cisplatin at the MTD.
Tumor cell suspensions were implanted subcutaneously into athymic nude mice. […] Cisplatin was purchased and provided for the study by Charles River Laboratories (Morrisville, N.C.). Animals were treated according to Regimen 1 at Day 1, followed by Regimen 2 on subsequent days as noted in Table A4.

MDA-MB-231 cells = experiment: ADCC, NK effector cells E:T 5:1; format: cell-based, human
ST803 xenograft = experiment: PDX model of HER2 negative pancreatic cancer (Example 48)
HBCx-5 xenograft = experiment: Trastuzumab resistant breast cancer PDX, ADC (Example 20); format: in vivo, athymic nude mice; settings: Day 43
Description: as §1, §2
Tumor volume was measured throughout the course of the study, and the mean tumor volume, T/C ratio, number of responders, complete response, and zero residual disease parameters were assessed at day 43.

ST1337B xenograft = experiment: PDX model of HER2 1+, ER+ breast cancer (Example 47); format: in vivo, athymic nude mice; settings: comparator groups (doses in Table A7)
JIMT-1 xenograft = experiment: Trastuzumab-resistant breast cancer cell derived xenograft, ADC (Example 32); format: in vivo, RAG2 mice; settings: Day 36
SKBr3 cells = experiment: ADCC, NK effector cells E:T 5:1; format: cell-based, human
Description: (§3) Target cells were pre-incubated with test antibodies (10-fold descending concentrations from 45 μg/ml) for 30 min followed by adding effector cells with effector/target cell ratio of 5:1 and the incubation continued for 6 hours at 37° C.+5% CO2. Samples were tested with 8 concentrations, 10 fold descending from 45 μg/ml. LDH release was measured using LDH assay kit.
(§4) Dose-response studies were performed with various concentrations of the samples with a effector/target (E/T) ratios of 5:1. 3:1 and 1:1. Half maximal effective concentration (EC50) values were analyzed with the sigmoidal dose-response non-linear regression fit using GraphPad prism.
(§5) The ADCC experiments were performed as described in Example 11 with the exception that NK effector cell to target cell ratio remained constant at 5:1.

SKOV3 cells [3] = experiment: ADCC (LDH release); format: cell-based, human
JIMT-1 cells [4] = experiment: ADCC, NK effector cells E:T 5:1; format: cell-based, human
Description: as §3, §4, §5
(§6) The ADCC experiment was conducted as described in Example 11 with E/T: 5:1 with NK-92 effector cells. FIG. 43A and Table 43 show the ADCC results in HER2 2+ JIMT-1 breast tumor cells.

MCF7 cells [5] = experiment: Whole cell loading and internalization (AlexaFluor 488 labelled antibody, flow cytometry); format: cell-based, human; settings: 200 nM labelled antibody, Table 41
BT-474 cells [6] = experiment: Binding to HER2+ cells by flow cytometry (FACS), format comparison; parameters: species or system human; settings: Table 35
Description: (§7) Binding of the test antibodies to the surface of HER2+ cells was determined by flow cytometry. Cells were washed with PBS and resuspended in DMEM at 1×10^5 cells/100 μl. 100 μl cell suspension was added into each microcentrifuge tube, followed by 10 μl/tube of the antibody variants. The tubes were incubated for 2 hr 4° C. on a rotator. The microcentrifuge tubes were centrifuged for 2 min 2000 RPM at room temperature and the cell pellets washed with 500 μl media. Each cell pellet was resuspended 100 μl of fluorochrome-labelled secondary antibody diluted in media to 2 μg/sample. The samples were then incubated for 1 hr at 4° C. on a rotator. After incubation, the cells were centrifuged for 2 min at 2000 rpm and washed in media. The cells were resuspended in 500 μl media, filtered in tube containing 5 μl propidium iodide (PI) and analyzed on a BD LSR II flow cytometer according to the manufacturer's instructions. The KD of exemplary biparatopic anti-HER2 heterodimer antibody and control antibodies were assessed by FACS with data analysis and curve fitting performed in GraphPad Prism.

JIMT-1 cells [7] = experiment: Whole cell loading and internalization (AlexaFluor 488 labelled antibody, flow cytometry); format: cell-based, human; settings: 200 nM labelled antibody, Table 40
MCF7 cells [8] = experiment: ADCC, NK-92 effector cells E/T 5:1; format: cell-based, human; settings: NK-92 E/T 5:1, Table 44
Description: as §6

MCF7 cells [9] = experiment: Binding to HER2+ cells by flow cytometry (FACS): Bmax and apparent KD; parameters: species or system human; settings: Table 37
Description: The following experiment was performed to measure the ability of an exemplary biparatopic anti-HER2 antibody to bind to cells expressing varying levels of HER2 in comparison to controls. […] The ability of the biparatopic anti-HER2 antibodies to bind to the HER2 expressing (HER2+) cells was determined as described below, with specific measurement of Bmax and apparent KD (equilibrium dissociation constant).
as §7

BT-474 cells [10] = experiment: Growth inhibition in the presence or absence of exogenous ligands (EGF, HRG); format: cell-based, human; settings: Table 46
BT-474 cells [11] = experiment: Whole cell loading and internalization (AlexaFluor 488 labelled antibody, flow cytometry); format: cell-based, human; settings: 200 nM labelled antibody, Table 39

“v6246: v506 conjugated to DM1, analogous to T-DM1, trastuzumab-emtansine” was tested. Which EC50 (SKOV3 cells [1]) did it give?
Its EC50 is 0.22 nM.

What about the “% TGI” value (SKOV3 xenograft; Day 22) of the same substance?
Its value is 54%.

And the “Mean TV % change from Baseline” value (SKOV3 xenograft; Day 22, n = 15)?
Its value is “+297%”.

And the “Mean TV (mm3)” value (SKOV3 xenograft; Day 22, n = 15)?
The value was 873 mm3.

And the “Median Survival” value (SKOV3 xenograft; mouse, in vivo)?
The value was 36 days.

What about the “% TGI (vs. hIgG)” value (T226 xenograft) of the same substance?
Its value is 77%.

What about the “Mean TV % change from Baseline” value (T226 xenograft) of the same substance?
Its value is “(+332%)”.

And the “Mean TV (mm3)” value (T226 xenograft)?
The value was 422 mm3.

And the EC50 (NCI-N87 cells)?
Its EC50 is 1.04 nM.

What about the EC50 (JIMT-1 cells [2]) of the same substance?
Its EC50 is 3.52 nM.

Which complete responses (GXA3054 xenograft; day 35) does the source give for trastuzumab [Herceptin ®] here?
The complete responses was 0/10.

What about the “Mean tumor volume on study day 35” value (GXA3054 xenograft; mouse, in vivo) of the same substance?
Its value is 7.8 mm3.

What about the “Tumor growth inhibition on day 35” value (GXA3054 xenograft; mouse, in vivo) of the same substance?
The value was 92%.

What about the “ZR-751 HER2 2+ Max % Target Cell Lysis” value (ZR-75-1 cells; PBMC E:T 5:1, Table 25) of the same substance?
The value was 21%.

What about the EC50 (ZR-75-1 cells; PBMC E:T 5:1, Table 25, read-out: ZR-751 HER2 2+ EC50) of the same substance?
The EC50 was about 0.5 nM.

What about the “Tumor volume on study day 25” value (FaDu xenograft) of the same substance?
Its value is 1257 mm^3.

What about the “MDA-MB-231 HER2 0/1+ Max % Target Cell Lysis” value (MDA-MB-231 cells; NK E:T 5:1, Table 23) of the same substance?
Its value is 44%.

What about the EC50 (MDA-MB-231 cells; read-out: MDA-MB-231 HER2 0/1+ EC50, NK E:T 5:1, Table 23) of the same substance?
The EC50 was 0.9 nM.

And the “Mean tumor volume on study day 54” value (ST803 xenograft; mouse, in vivo)?
Its value is 1494 mm3.

What about the Median Survival (ST803 xenograft; study duration 71 days) of the same substance?
Its Median Survival is 65.9 days.

What about the “Complete response (>10% baseline regression)” value (HBCx-5 xenograft) of the same substance?
Its value is 0/5.

What about the “Mean TV % change from Baseline” value (HBCx-5 xenograft) of the same substance?
Its value is “+598%”.

What about the “Mean TV (mm3)” value (HBCx-5 xenograft) of the same substance?
The value was 815 mm3.

What about the “Zero residual disease (TV < 20 mm3)” value (HBCx-5 xenograft) of the same substance?
The value was 0/5.

What about the “Tumor volume on study day 29” value (ST1337B xenograft) of the same substance?
Its value is 1264 mm3.

And the “Mean TV % change from Baseline” value (JIMT-1 xenograft)?
Its value is “+541%”.

And the “Mean TV (mm3)” value (JIMT-1 xenograft)?
The value was 718 mm3.

And the “PR (>10% baseline regression)” value (JIMT-1 xenograft)?
Its value is 0/10.

What about the “ZRD (TV < 20 mm3)” value (JIMT-1 xenograft) of the same substance?
The value was 0/10.

And the “SICBr3 HER2 3+ Max % Target Cell Lysis” value (SKBr3 cells; NK E:T 5:1, Table 23)?
The value was 23%.

And the EC50 (SKBr3 cells; NK E:T 5:1, Table 23, read-out: SICBr3 HER2 3+ EC50)?
The EC50 was about 0.9 nM.

And the “SKOV3 HER2 2+/3+ Max % Target Cell Lysis” value (SKOV3 cells [3]; NK E:T 5:1, Table 24)?
Its value is 14%.

What about the EC50 (SKOV3 cells [3]; NK E:T 5:1, Table 24, read-out: SKOV3 HER2 2+/3+ EC50) of the same substance?
Its EC50 is about 0.6 nM.

What about the “JIMT-1 HER2 2+ Max % Target Cell Lysis” value (JIMT-1 cells [4]; NK E:T 5:1, Table 23) of the same substance?
The value was 51%.

And the EC50 (JIMT-1 cells [4]; NK E:T 5:1, Table 23, read-out: JIMT-1 HER2 2+ EC50)?
The EC50 was 0.002 nM.

“v6717: biparatopic anti-HER2 antibody, scFv-scFv format (pertuzumab scFv, trastuzumab scFv), heterodimeric Fc” was tested. Which “% Max Cell Lysis(top only)” value (MDA-MB-231 cells; NK-92 E/T 5:1, Table 45) did it give?
Its value is 63%.

And the EC50 (MDA-MB-231 cells; NK-92 E/T 5:1, Table 45, read-out: EC50)?
The EC50 was 10 nM.

What about the “Surface 4° C.” value (MCF7 cells [5]; 2 h at 4° C.) of the same substance?
The value was 48.

What about the “Internal 37° C.” value (MCF7 cells [5]; 24 h at 37° C.) of the same substance?
The value was 145.

And the “Surface 37° C.” value (MCF7 cells [5]; 24 h at 37° C.)?
The value was 31.

What about the Bmax (BT-474 cells [6]) of the same substance?
The Bmax was 36392.

And the Kd (BT-474 cells [6]; apparent KD)?
The Kd was 30 nM.

And the “Surface 4° C.” value (JIMT-1 cells [7]; 2 h at 4° C.)?
Its value is 247.

What about the “Internal 37° C.” value (JIMT-1 cells [7]; 24 h at 37° C.) of the same substance?
The value was 1082.

And the “Surface 37° C.” value (JIMT-1 cells [7]; 24 h at 37° C.)?
Its value is 31.

And the “% Max Cell Lysis” value (MCF7 cells [8])?
The value was 30%.

What about the EC50 (MCF7 cells [8]) of the same substance?
The EC50 was 109 nM.

And the “% Max Cell Lysis” value (JIMT-1 cells [4]; NK-92 E/T 5:1, Table 43)?
Its value is 51%.

And the EC50 (JIMT-1 cells [4]; NK-92 E/T 5:1, Table 43, read-out: EC50)?
The EC50 was about 0.72 nM.

And the Bmax (MCF7 cells [9])?
The Bmax was 1167.

And the Kd (MCF7 cells [9]; apparent KD)?
The Kd was 32 nM.

And the “% Survival +EGF” value (BT-474 cells [10])?
Its value is 129%.

What about the “% Survival +HRG” value (BT-474 cells [10]) of the same substance?
Its value is 126%.

And the “% Survival Antibody only” value (BT-474 cells [10])?
Its value is 113%.

And the “Surface 4° C.” value (BT-474 cells [11]; 2 h at 4° C.)?
The value was 2006.

What about the “Internal 37° C.” value (BT-474 cells [11]; 24 h at 37° C.) of the same substance?
Its value is 6498.

And the “Surface 37° C.” value (BT-474 cells [11]; 24 h at 37° C.)?
The value was 1212.
